Earlier results in PMC9977316, “The kidney drug transporter OAT1 regulates gut microbiome–dependent host metabolism” (JCI Insight, 2023).

Target: T1, OAT1 (Homo sapiens, UniProt Q4U2R8)
T1 sequence (Q4U2R8 1-563): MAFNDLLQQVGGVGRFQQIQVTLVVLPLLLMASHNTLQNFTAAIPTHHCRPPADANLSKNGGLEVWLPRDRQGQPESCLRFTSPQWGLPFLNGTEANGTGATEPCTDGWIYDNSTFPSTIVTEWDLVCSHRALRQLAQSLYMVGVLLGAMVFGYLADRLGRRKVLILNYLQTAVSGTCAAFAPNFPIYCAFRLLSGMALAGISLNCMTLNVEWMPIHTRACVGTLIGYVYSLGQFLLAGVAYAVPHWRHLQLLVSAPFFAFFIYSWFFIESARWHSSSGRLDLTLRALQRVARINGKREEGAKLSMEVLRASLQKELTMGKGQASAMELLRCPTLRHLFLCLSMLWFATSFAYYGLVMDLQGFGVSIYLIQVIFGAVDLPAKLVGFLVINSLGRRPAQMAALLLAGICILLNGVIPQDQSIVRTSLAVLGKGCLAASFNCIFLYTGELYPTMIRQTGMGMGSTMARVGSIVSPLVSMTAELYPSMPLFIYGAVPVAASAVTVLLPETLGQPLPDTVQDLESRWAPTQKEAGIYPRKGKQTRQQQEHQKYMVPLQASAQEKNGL
Design: The full-length protein was expressed as GFP fusion in HEK293 cells to check for protein expression; GFP; FLAG (inferred from capture on anti-flag antibody beads); made in house; host or cells: HEK293 cells, third-generation lentiviral vector
Conditions: cited from earlier work

In the case of Indoleacetate, the “In vitro cell–based transport assay” value is listed as “× (17)”.
